Screens (PubChem)
miR-21 reporter = miR-21 reporter, rising signal; HeLa miR-21 FLuc reporter, luciferase, 48 h; Potency, µM (highest dose often 38.3 µM); 340,000 tested, under 10 active; AID 2288; active = well fitted rising curve with a large enough effect; inconclusive = small, poorly fitted or top-dose-only effect; inactive = no such curve, though single readings can be large or run the other way;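 further: miR-21 action dims this reporter so a rising signal means less miR-21 action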
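HeLa miR-21-FLuc reporter line, endogenous miR-21; 2000 cells/well in DMEM/10% FBS; compound titration up to ~40uM final, 48 h, 37 degree Celsius; luciferase detection reagent, 15 min lysis, CCD luminescence.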
Nrf2 block = Nrf2 pathway inhibition; 360,000 tested, 2.1% active; A549 ARE-Fluc reporter, luciferase luminescence, 18-24 h; Potency, µM (doses to about 46 µM), actives largely listed as inhibitors; AID 504444; also: nearly all actives have a fitted effect of over 60% in size
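Two sequential reads on A549 ARE_Fluc cells exposed to compound for 18-24 h: a CellTiter-Fluor fluorescence read for viability, then a luciferase luminescence read for Nrf2/ARE activity.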
Nrf2 activator = activates Nrf2 signaling | AREc32 ARE-luciferase reporter (MCF7-derived line), luminescence, 24 h | Potency, µM (top dose mostly 46.1 µM), usual class: activators | 410,000 tested, 0.31% active | AID 624171; also: nearly all actives have a fitted effect of over 65% in size
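AREc32 cells carrying an ARE-driven firefly luciferase, 1000 cells/well in OPTI-MEM with 5% FBS, dosed after overnight attachment and incubated 24 hr at 37 deg C. Steady-Glo luminescence read after 30 min at RT.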
A549 tox = A549 cytotoxicity, counter-screen for Nrf2 inhibitors; 390,000 tested, 0.16% active; AID 504648; Potency, µM (series often up to 46 µM), actives largely listed as inhibitors; A549 ARE-Fluc cells, CellTiter-Fluor viability, 18-24 h
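A549 ARE-Fluc cells in 5% FBS OPTI-MEM, 5000 cells/well, rested 2 h then exposed to compounds in concentration-response for 18-24 h at 37 °C. Viability by CellTiter-Fluor fluorescence (Ex 405/Em 525) after 30 min; luciferase luminescence (BugLite, 15 min, RT) read afterwards.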
B2AR arrestin = recruits beta-arrestin to the human beta2-adrenergic receptor. P07550. AID 492947. Potency, µM (top dose mostly 46.1 µM), hits mostly activators. 330,000 tested, 0.02% active. beta-arrestin recruitment to beta2AR, cell-based reporter; also: nearly all actives have a fitted effect of over 65% in size
Each line names hits and unclear results; the compound was inactive in the other large screens. Compounds with a hit are over-represented: about 2.2% of the library has one in this group of screens. Unless noted, calls follow the shape of the dose curve; as a rule, active = well fitted curve in the direction sought with a large enough effect; inconclusive = small, poorly fitted or top-dose-only effect, or another doubt; inactive = no such curve, though single readings can be large; an effect the other way counts as inactive or inconclusive.

Nc1[nH]n2c(=O)cc(-c3ccccc3)nc2c1N=Nc1ccc(S(N)(=O)=O)cc1	Nrf2 block inconclusive
Cc1ccc(S(=O)(=O)c2cn(Cc3ccccc3)c3cc(N4CCCC4)c(F)cc3c2=O)cc1C	none (no result: B2AR arrestin)
CN1c2ccccc2C(C)(C)C12C=Cc1cc(O)ccc1O2 (stereo unspecified)	Nrf2 block 20.6µM, A549 tox inconclusive
Cc1nc(N2CCN(C(=O)c3ccco3)CC2)c2oc3ccccc3c2n1	Nrf2 block 20.6µM
CCc1nc(N2CCN(C(=O)c3ccco3)CC2)c2oc3ccccc3c2n1	Nrf2 block inconclusive
Cc1ccc(CNc2ncnc3ccc(-c4ccc5c(c4)OCO5)cc23)s1	none (no result: miR-21 reporter, Nrf2 activator, B2AR arrestin)
CCOC(=O)c1c(C)nc2sc3c(=O)n(-c4ccc(C(C)=O)cc4)nnc3c2c1-c1ccc(OC)cc1	Nrf2 block 14.6µM
COc1ccc(C#Cc2cnc(Cl)c3cncnc23)cc1OC	none (no result: miR-21 reporter, Nrf2 activator, B2AR arrestin)
Cc1ccc(Cn2c(CN(C)Cc3ccccc3)nc3c2c(=O)n(C)c(=O)n3C)cc1	none (no result: A549 tox)
COc1ccc(N2CCN(c3nc4c(c(=O)n(C)c(=O)n4C)n3Cc3ccccc3)CC2)cc1	Nrf2 block inconclusive
CCOCCn1c(CN2CCN(c3ccc(F)cc3)CC2)nc2c1c(=O)n(C)c(=O)n2C	Nrf2 block inconclusive
COC(=O)Cn1c(CN2CCN(c3ccc(F)cc3)CC2)nc2c1c(=O)n(C)c(=O)n2C	Nrf2 block 18.4µM
CCCCCn1c(N2CCC(Cc3ccccc3)CC2)nc2c1c(=O)[nH]c(=O)n2C	Nrf2 block 23.1µM, A549 tox inconclusive (no result: miR-21 reporter, B2AR arrestin)
CN(Cc1ccccc1)Cc1nc2c(c(=O)n(C)c(=O)n2C)n1Cc1ccc(Cl)cc1	Nrf2 block 14.6µM (no result: A549 tox)
C=C(C)Cn1c(N2CCN(c3ccc(OC)cc3)CC2)nc2c1c(=O)n(C)c(=O)n2C	Nrf2 block 23.1µM
CCn1c(SCc2nnc(-c3ccccc3)o2)nc2c1c(=O)n(C)c(=O)n2C	none (no result: Nrf2 block, Nrf2 activator, A549 tox)
CCCCCn1c(CN(C)Cc2ccccc2)nc2c1c(=O)n(C)c(=O)n2C	Nrf2 block 18.4µM
C=C(C)CSc1nc2c(c(=O)[nH]c(=O)n2C)n1Cc1ccccc1	Nrf2 block 5.8µM
CCCCn1c(SCc2nnc(-c3ccccc3)o2)nc2c1c(=O)n(C)c(=O)n2C	Nrf2 block 10.3µM
CCCCCCn1c(N2CCN(c3ccccc3)CC2)nc2c1c(=O)n(C)c(=O)n2C	Nrf2 block 23.1µM, A549 tox inconclusive
CCCSc1nc2c(c(=O)[nH]c(=O)n2C)n1Cc1ccccc1	none
O=[S+]([O-])(c1ccc2c(c1)OCCO2)N1CCN([S+](=O)([O-])c2c(O)cc(F)cc2F)CC1	none (no result: miR-21 reporter, Nrf2 activator, B2AR arrestin)
CC(C)OC(=O)c1ccc(NCc2cc(O)ccc2O)cc1	Nrf2 activator 12.6µM (no result: miR-21 reporter, B2AR arrestin)
COc1ccc(NC(=O)CCCSc2nc(-c3ccco3)cc(C(F)(F)F)n2)cc1OC	Nrf2 block 20.6µM
O=C(CSc1nc(-c2ccco2)cc(C(F)(F)F)n1)Nc1ccc(C(=O)N2CCCCC2)cc1	Nrf2 block 23.1µM
COc1ccc(NC(=O)CCSc2nc(-c3ccco3)cc(C(F)(F)F)n2)cc1OC	none (no result: B2AR arrestin)
Cc1ccc(NC(=O)CSc2nc(-c3ccco3)cc(C(F)(F)F)n2)cc1	none (no result: B2AR arrestin)
COc1ccc(Cl)cc1NC(=O)CSc1cn(CC(=O)N2CCCCC2)c2ccccc12	Nrf2 block inconclusive (no result: B2AR arrestin)
O=C(/C=C/c1cccc(F)c1)Nc1nccs1	Nrf2 block inconclusive, Nrf2 activator 10µM
CCOC(=O)/C=C/c1cc(F)c(S(=O)(=O)N2CCN(S(=O)(=O)c3ccc4c(c3)OCCO4)CC2)cc1F	none (no result: miR-21 reporter, Nrf2 activator, B2AR arrestin)
NC(=O)c1sc(-c2ccsc2)cc1NS(=O)(=O)c1ccc(C(F)(F)F)cc1	Nrf2 block 14.6µM
Cc1csc2ncc(C(=O)NCc3ccco3)c(=O)n12	Nrf2 activator 11.2µM
Cc1ccc(Nc2nc(C(=O)NCc3ccco3)cs2)cc1	Nrf2 block 9.2µM (no result: A549 tox)
O=C(NCc1ccco1)c1cnc2sccn2c1=O	none
Cc1nc(SCC(=O)NCC2COc3ccccc3O2)c2c(C)c(C)sc2n1 (stereo unspecified)	Nrf2 block 20.6µM (no result: miR-21 reporter)
Fc1cccc(CNc2ncnc3ccc(-c4cccnc4)cc23)c1	none (no result: miR-21 reporter, Nrf2 block, Nrf2 activator, A549 tox)
Cc1ccc(NC(=O)N2CCN(Cc3ccc4c(c3)OCO4)CC2)cc1	Nrf2 block inconclusive, A549 tox inconclusive
O=C(Nc1ccc2c(c1)OCO2)N1CCN(Cc2ccco2)CC1	Nrf2 block 16.4µM
Cc1ccc(NC(=O)c2c(C)oc3ccc(O)c(CN4CCCCCC4)c23)c(C)c1	none (no result: B2AR arrestin)
CCCCOc1ccc(Cn2c(=O)oc3ccc(C)cc32)cc1	none (no result: B2AR arrestin)
CCN(CC)c1c([N+](=O)[O-])c(=O)n(C)c2ccccc12	none
Cn1c(=O)c([N+](=O)[O-])c(Cl)c2ccccc21	Nrf2 block inconclusive, A549 tox 20.6µM
CCOc1ccc(C(=O)CC(C(=O)O)N2CCCCC2)cc1 (stereo unspecified)	Nrf2 activator 15.8µM (no result: miR-21 reporter)
CCOc1ccc(C(=O)CC(NCc2cccs2)C(=O)O)cc1 (stereo unspecified)	Nrf2 activator 11.2µM
N#Cc1c(NC(=O)CSc2nc(N)cc(=O)[nH]2)sc2c1CCCC2	Nrf2 block 14.6µM
Cc1ccc(CCNC(=O)c2sc3ncccc3c2-n2c(C)ccc2C)cc1	none (no result: Nrf2 block, B2AR arrestin)
CCN(CC)S(=O)(=O)c1ccc(C(=O)Nc2nnc(CSC)o2)cc1	none
CN(Cc1ccccc1)S(=O)(=O)c1ccc(C(=O)Nc2nnc(C3CC3)o2)cc1	miR-21 reporter inconclusive, Nrf2 block inconclusive
CCc1nnc(NC(=O)c2ccc(S(=O)(=O)N(CC)Cc3ccccc3)cc2)o1	Nrf2 block 20.6µM
COc1ccccc1-c1nnc(NC(=O)c2ccc(S(=O)(=O)N3CCOCC3)cc2)o1	Nrf2 block inconclusive
COc1ccccc1-c1nnc(NC(=O)c2ccc(S(=O)(=O)N(C)Cc3ccccc3)cc2)o1	Nrf2 block 5.8µM
CCc1nnc(NC(=O)c2ccc(S(=O)(=O)N(C)Cc3ccccc3)cc2)o1	miR-21 reporter inconclusive, Nrf2 block 7.31µM
CCCCN(C)S(=O)(=O)c1ccc(C(=O)Nc2nnc(CSC)o2)cc1	Nrf2 block 10µM
COc1ccc(CC(=O)Nc2cc(-c3nc4cccnc4s3)ccc2C)cc1	Nrf2 block inconclusive (no result: B2AR arrestin)
CC(C)(C)c1ccc(C(=O)N2CC(=O)Nc3ccc(F)cc3C2c2ccc(F)cc2)cc1 (stereo unspecified)	miR-21 reporter inconclusive (no result: B2AR arrestin)
CCN(Cc1ccccc1)S(=O)(=O)c1ccc(C(=O)Nc2nnc(C)o2)cc1	Nrf2 block 13µM
CCN(CC)S(=O)(=O)c1ccc(C(=O)Nc2nnc(COC)o2)cc1	none
CCN1c2ccccc2-c2nc(SCC(=O)Nc3c(C)cc(C)cc3C)ncc2S1(=O)=O	A549 tox inconclusive (no result: B2AR arrestin)
Cc1ccc(OCCCSc2ncccn2)cc1C	Nrf2 block inconclusive
Cc1cc(OCCCCOc2ccc(S(N)(=O)=O)c(C)c2)ccc1S(N)(=O)=O	Nrf2 block 11.6µM
